Test results from ChEMBL document CHEMBL5375989, “Pioneering 4,11-Dioxo-4,11-dihydro-1H-anthra[2,3-d]imidazol-3-ium Compounds as Promising Survivin Inhibitors by Targeting ILF3/NF110 for Cancer Therapy” (J Med Chem, 2023).

By UniProt entry, the sequences of proteins in these tests, tags left out.
UniProt Q12906, whole entry: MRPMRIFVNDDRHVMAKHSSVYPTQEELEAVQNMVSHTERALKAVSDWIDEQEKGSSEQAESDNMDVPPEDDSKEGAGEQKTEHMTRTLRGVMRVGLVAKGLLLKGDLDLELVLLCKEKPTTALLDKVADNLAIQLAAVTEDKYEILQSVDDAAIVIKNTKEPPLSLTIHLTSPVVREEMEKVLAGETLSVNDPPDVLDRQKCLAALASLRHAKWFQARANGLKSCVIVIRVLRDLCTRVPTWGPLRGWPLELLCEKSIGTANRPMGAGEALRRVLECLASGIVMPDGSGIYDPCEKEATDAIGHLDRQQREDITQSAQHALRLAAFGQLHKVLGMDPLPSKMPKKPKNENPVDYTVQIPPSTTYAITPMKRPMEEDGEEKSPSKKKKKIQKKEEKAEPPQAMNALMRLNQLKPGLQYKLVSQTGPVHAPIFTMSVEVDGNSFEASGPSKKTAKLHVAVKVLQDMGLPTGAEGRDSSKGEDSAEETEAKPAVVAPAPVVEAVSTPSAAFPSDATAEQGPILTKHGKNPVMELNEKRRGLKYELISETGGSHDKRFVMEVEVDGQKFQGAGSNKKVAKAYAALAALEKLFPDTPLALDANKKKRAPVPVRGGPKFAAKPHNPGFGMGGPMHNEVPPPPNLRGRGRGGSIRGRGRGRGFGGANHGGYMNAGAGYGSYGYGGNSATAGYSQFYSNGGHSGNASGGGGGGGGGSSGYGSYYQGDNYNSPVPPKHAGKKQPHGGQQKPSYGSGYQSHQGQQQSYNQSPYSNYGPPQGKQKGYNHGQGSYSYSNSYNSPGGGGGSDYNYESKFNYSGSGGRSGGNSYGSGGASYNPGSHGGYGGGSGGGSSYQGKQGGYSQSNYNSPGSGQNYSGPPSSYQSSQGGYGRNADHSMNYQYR

Target: Interleukin enhancer-binding factor 3 (Homo sapiens, UniProt Q12906)
Details: dose <= 1.0 µM

| SMILES | Kdiss [s⁻¹] |
| --- | --- |
| Cn1c[n+](C)c2c1C(=O)c1cc3ccccc3cc1C2=O | 0.059 |
| COCC[n+]1c2c(n(Cc3cnccn3)c1C)C(=O)c1ccccc1C2=O.[Br-] [SEPANTRONIUM BROMIDE] | 0.063 |
